Values of other authors as cited in PMC4770307, “New Synthetic Routes to Triazolo-benzodiazepine Analogues: Expanding the Scope of the Bump-and-Hole Approach for Selective Bromo and Extra-Terminal (BET) Bromodomain Inhibition” (Journal of Medicinal Chemistry, 2015).

Target: BET bromodomains
Settings: across BET bromodomains; cited from earlier work

For CCNC(=O)C[C@@H]1N=C(c2ccc(Cl)cc2)c2cc(OC)ccc2-n2c(C)nnc21 [I-BET762 (1)], the Kd is given as 50 to 370 nM.
